# Only a part is listed here, and it is no random draw. Activity calls are given as the source filed them.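 Rule for the calls: active = inhibition above a set limit, derived from the sample mean plus 3 SD (cut at about 45% in these data); inconclusive = one replicate passes the limit while the other fails; inactive = the rest.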
# Experiment: APP 5'UTR translational reporter suppression – APP 5'UTR luciferase, SH-SY5Y cells, primary screen (AID 1285)
# Details: SH-SY5Y APP 5'UTR-luciferase reporter, luminescence; at 2 µM; stronger effect = higher value
row,SMILES,inhibition
1,CCOC(=O)c1ccc(NP(C)(=O)Oc2ccc(Cl)cc2)cc1 (stereo not drawn),inactive: -3.8%
2,CP(=O)(OC12CC3CC(CC(C3)C1)C2)OC12CC3CC(CC(C3)C1)C2,inactive: 10.3%
3,CCN(CC)CC(O)COC(=O)C(O)(c1ccccc1)C1CCCCC1 (stereo not drawn),inactive: 1.8%
4,COc1ccc(OP(C)(=O)Nc2ccc(Br)cc2)cc1 (stereo not drawn),inactive: -10.9%
5,COc1ccccc1OP(C)(=O)Nc1c(C)n(C)n(-c2ccccc2)c1=O (stereo not drawn),inactive: -4.2%
6,CP(=O)(Oc1ccccc1)N1CCOC1=O (stereo not drawn),inactive: -1.7%
7,CCc1ccc(OP(C)(=O)Nc2cccnc2)cc1 (stereo not drawn),inactive: -14.2%
8,CC(C)(C)c1ccc(OP(C)(=O)O)cc1,inactive: 8.4%
9,COc1ccccc1OP(C)(=O)Nc1ccccc1Br (stereo not drawn),inactive: -0.6%
10,CP(=O)(Nc1ccc(Cl)cc1)Oc1ccc(F)cc1 (stereo not drawn),inactive: 1.9%
11,CN(C)C(=O)c1c([N+](=O)[O-])cc([N+](=O)[O-])cc1[N+](=O)[O-],inactive: 7.9%
12,COc1ccc(OP(C)(=O)Nc2ccccn2)cc1 (stereo not drawn),inactive: 2.4%
13,CN(C)CCOC(=O)C(O)(c1ccccc1)C1CCCC1 (stereo not drawn),inactive: 9.2%
14,Cc1c(NP(C)(=O)Oc2ccc(C(C)C)cc2)c(=O)n(-c2ccccc2)n1C (stereo not drawn),inactive: -5.5%
15,CP(=O)(Nc1ccccn1)Oc1ccccc1 (stereo not drawn),inactive: 8.1%
16,COc1ccccc1OP(C)(=O)Nc1ccc(C)cc1C (stereo not drawn),inactive: -10.3%
17,CCc1ccc(OP(C)(=O)O)cc1,inactive: 7.1%
18,Cc1cc(C)cc(OP(C)(=O)Nc2cccc(C(F)(F)F)c2)c1 (stereo not drawn),inactive: 15.2%
19,COc1ccccc1OP(C)(=O)Nc1ccc(C)c(C)c1 (stereo not drawn),inactive: -21.4%
20,COc1ccc(OP(C)(=O)Nc2ccccc2Br)cc1 (stereo not drawn),inactive: -2%
21,Cc1nc2ccc3ccccc3c2o1.O=[N+]([O-])c1cc([N+](=O)[O-])c(O)c([N+](=O)[O-])c1,inactive: -6.7%
22,CP(=O)(OCCOc1ccccc1)OCCOc1ccccc1,inactive: 7.1%
23,CP(=O)(Nc1ccc(Cl)cc1Cl)Oc1ccccc1 (stereo not drawn),inactive: -2.4%

row,SMILES,inhibition
1,CCOC(=O)c1ccc(NP(C)(=O)Oc2ccc(F)cc2)cc1 (stereo not drawn),inactive: -18.9%
2,COc1ccc(OP(C)(=O)Nc2ccc(SC(F)(F)F)cc2)cc1 (stereo not drawn),inactive: -13.5%
3,CCN(CC)CCCOC(=O)C(O)(c1ccccc1)C1CCCCC1 (stereo not drawn),inactive: 8.8%
4,CP(=O)(Nc1ccccc1)Oc1ccc(F)cc1 (stereo not drawn),inactive: 7%
5,CP(=O)(Nc1ccccc1F)Oc1ccccc1 (stereo not drawn),inactive: 3.2%
6,CC(C)c1ccc(OP(C)(=O)Nc2ccc(SC(F)(F)F)cc2)cc1 (stereo not drawn),inactive: -11%
7,O=C(OCCN1CCN(CCOCc2ccccc2)CC1)C(O)(c1ccccc1)c1ccccc1,inactive: 6.3%
8,CP(=O)(Nc1ccc2c(c1)OCCO2)Oc1ccccc1 (stereo not drawn),inactive: 5.7%
9,Cc1ccccc1NP(C)(=O)Nc1ccccc1C,inactive: 7.8%
10,COc1ccc(OP(C)(=O)Nc2cccc(Br)c2)cc1 (stereo not drawn),inactive: -1.7%
11,CN(C)CCOC(=O)C(O)(c1ccccc1)C1CCCCC1 (stereo not drawn),inactive: -6.3%
12,COc1ccc(NP(C)(=O)Oc2ccccc2OC)cc1 (stereo not drawn),inactive: 15.8%
13,O=[N+]([O-])c1cc([N+](=O)[O-])c(NCC2CCS(=O)(=O)C2)c([N+](=O)[O-])c1 (stereo not drawn),inactive: 7%
14,COc1ccccc1OP(C)(=O)Nc1c(C)cccc1C (stereo not drawn),inactive: 13.5%
15,CN1CCCCC1COC(=O)C1(O)c2ccccc2CCc2ccccc21 (stereo not drawn),inactive: 8.7%
16,CP(=O)(Nc1ccc(SC(F)(F)F)cc1)Oc1ccccc1 (stereo not drawn),inactive: -19.6%
17,CCCOc1ccc(NP(C)(=O)Oc2ccc(Cl)cc2)cc1 (stereo not drawn),inactive: -25.1%
18,O=[N+]([O-])c1cc([N+](=O)[O-])c(-n2nnc3ccccc32)c([N+](=O)[O-])c1,inactive: 36%
19,Cc1nc2ccc3ccccc3c2s1.O=[N+]([O-])c1cc([N+](=O)[O-])c(O)c([N+](=O)[O-])c1,inactive: 1.9%
20,CCOC(=O)c1ccc(NP(C)(=O)Oc2cc(C)cc(C)c2)cc1 (stereo not drawn),inactive: -2.1%
21,Cc1cc(C)cc(OP(C)(=O)Nc2ccc(C)cc2C)c1 (stereo not drawn),inactive: -6.9%
22,Cc1ccc(C)c(NP(C)(=O)Oc2ccccc2)c1 (stereo not drawn),inactive: -1.7%
23,CP(=O)(Nc1cccc(Br)c1)Oc1ccccc1 (stereo not drawn),inactive: 21.7%

row,SMILES,inhibition
1,Cc1cc(C)cc(OP(C)(=O)Nc2ccccn2)c1 (stereo not drawn),inactive: 0%
2,CC1=NCCc2c1[nH]c1ccccc21.O=[N+]([O-])c1cc([N+](=O)[O-])c(O)c([N+](=O)[O-])c1,inactive: -6%
3,O=[N+]([O-])c1ccc2c(c1)C=Nc1ccccc1O2,inactive: -2%
4,CC(C)(C)c1ccc(OP(C)(=O)Nc2ccc(SC(F)(F)F)cc2)cc1 (stereo not drawn),inactive: -5.6%
5,Cc1cccc(C)c1OP(C)(N)=O (stereo not drawn),inactive: -10.6%
6,COc1ccccc1OP(C)(=O)Nc1ccc(C)cc1 (stereo not drawn),inactive: -15.2%
7,Cc1ccc(NP(C)(=O)Oc2ccccc2)c(C)c1 (stereo not drawn),inactive: 12%
8,CCOC(=O)c1ccc(NP(C)(=O)Oc2ccccc2)cc1 (stereo not drawn),inactive: -2.6%
9,Cc1cc(C)cc(OP(C)(N)=O)c1 (stereo not drawn),inactive: 15.6%
10,COc1ccccc1OP(C)(=O)Nc1cc(Cl)ccc1C (stereo not drawn),inactive: -9.6%
11,COc1ccc(OP(C)(=O)Nc2cccc(F)c2)cc1 (stereo not drawn),inactive: -7.4%
12,CCN(CC)CCCOC(=O)C(O)(c1ccccc1)c1ccccc1,inactive: -5.8%
13,Cc1cccc(C)c1OP(C)(=O)Nc1ccc(SC(F)(F)F)cc1 (stereo not drawn),inactive: -5%
14,CP(=O)(Oc1ccccc1)OC(c1ccccc1)C(F)(F)F (stereo not drawn),inactive: -13.5%
15,CP(=O)(NC(=O)Nc1ccccc1)Oc1ccccc1 (stereo not drawn),inactive: -10.1%
16,Cc1cc(C)cc(OP(C)(=O)Nc2ccc(SC(F)(F)F)cc2)c1 (stereo not drawn),inactive: -8.4%
17,CCOC(=O)c1ccc(NP(C)(=O)Oc2ccc(OC)cc2)cc1 (stereo not drawn),inactive: 5.9%
18,CCOP(C)(=S)SCC(=O)NC(C)C(=O)O (stereo not drawn),inactive: 3.7%
19,CP(=O)(Nc1ccccn1)Oc1ccc(Cl)cc1 (stereo not drawn),inactive: 9.6%
20,CP(=S)(Nn1cnnc1)Oc1ccccc1 (stereo not drawn),inactive: -3.7%
21,CP(=O)(Nc1ccccc1Br)Oc1ccccc1 (stereo not drawn),inactive: 2.2%
22,COc1ccccc1OP(C)(=O)Nc1ccccc1 (stereo not drawn),inactive: 1.8%

# — PubChem BioAssay AID1285 (Columbia University Molecular Screening Center, 2008)
